Measured values taken from ChEMBL document CHEMBL1944549, “Small molecule inhibitors of BRAF in clinical trials” (Bioorg Med Chem Lett, 2012).

Protein sequences, listed by entry. Tags and fused reporters are not part of them.
UniProt P15056, whole entry: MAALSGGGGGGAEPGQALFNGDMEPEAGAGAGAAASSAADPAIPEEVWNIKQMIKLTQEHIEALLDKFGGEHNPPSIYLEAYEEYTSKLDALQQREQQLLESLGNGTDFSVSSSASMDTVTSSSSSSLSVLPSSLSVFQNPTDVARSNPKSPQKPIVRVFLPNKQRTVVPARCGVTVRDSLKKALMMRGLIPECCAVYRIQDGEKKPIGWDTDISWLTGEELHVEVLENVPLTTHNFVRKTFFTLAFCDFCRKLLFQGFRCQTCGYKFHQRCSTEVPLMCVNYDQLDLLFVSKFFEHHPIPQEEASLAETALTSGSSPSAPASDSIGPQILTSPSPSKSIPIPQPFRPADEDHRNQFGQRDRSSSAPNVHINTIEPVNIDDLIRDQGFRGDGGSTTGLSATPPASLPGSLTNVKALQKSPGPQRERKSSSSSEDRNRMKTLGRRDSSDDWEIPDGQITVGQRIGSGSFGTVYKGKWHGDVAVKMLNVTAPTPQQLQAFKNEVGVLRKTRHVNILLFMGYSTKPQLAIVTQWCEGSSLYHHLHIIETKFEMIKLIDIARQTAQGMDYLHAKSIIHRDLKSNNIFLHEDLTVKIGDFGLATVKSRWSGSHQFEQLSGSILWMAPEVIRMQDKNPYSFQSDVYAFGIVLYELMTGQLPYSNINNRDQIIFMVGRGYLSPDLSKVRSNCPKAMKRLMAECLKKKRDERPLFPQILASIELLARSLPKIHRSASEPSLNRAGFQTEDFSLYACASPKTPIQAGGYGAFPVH

Key:
Assay type in all cases: cell-based
[1] = target: T1, Serine/threonine-protein kinase B-raf (Homo sapiens, UniProt P15056); test: Inhibition of B-Raf-mediated Erk phosphorylation in human HMEC cells after 60 mins by Western blot analysis
[2] = target: T1, Serine/threonine-protein kinase B-raf; test: Inhibition of B-Raf-mediated Erk phosphorylation in human HFF cells after 60 mins by Western blot analysis
[3] = target: T1, Serine/threonine-protein kinase B-raf; test: Inhibition of B-Raf-mediated Erk phosphorylation in human PREC cells after 60 mins by Western blot analysis

Measured: EC50

CN(C)CCOc1ccc(-c2nc(-c3ccncc3)c(-c3ccc4c(c3)CC/C4=N\O)[nH]2)cc1 [SB590885]
1100 nM: [1] | [2] | [3]
